Screening data (PubChem BioAssay)
Most compounds without a hit are left out; they make up all but 2.5% or so of the library.
ClpP mod – qHTS Assay for Activators of ClpP. purified B. subtilis ClpP, FRET peptide cleavage, 20 min. Potency, µM (highest dose often 57.5 µM), for inactives: at the top dose activity change, negative = active. 340,000 compounds, 1.9% hits. AID 651965, 2013; active means well fitted falling curve with a large enough effect; inconclusive means small, poorly fitted or top-dose-only effect; inactive means no such curve, though single readings can be large or run the other way; further: potency means the concentration at half of the fitted maximal effect; the source files actives as falling curves though it sought activators and does not explain the sign; nearly all actives have a fitted effect of over 65% in size
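Purified B. subtilis ClpP, 10 microg/mL final in Tris/HCl pH8 with KCl, BSA, glycerol and Tween-20, cleaved an Abz/nitrotyrosine-quenched decapeptide. Fluorescence (ex 320, em 430) was read at 0 and 20 min at room temperature. Delta was normalized to 5.8 microM ADEP and DMSO/no-enzyme controls.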
Apoferritin bind – candidate novel general anesthetic via apoferritin binding; P02791; apoferritin/1-aminoanthracene competitive binding, fluorescence; Potency, µM (highest dose often 77.5 µM), for the others: at the top dose activity change, negative = displacement, actives largely listed as inhibitors; 350,000 compounds, 0.074% hits; further: potency means the concentration at half of the fitted maximal effect; on the % scale 0 is the no-effect control and ±100 the full control effect; nearly all actives have a fitted effect of over 20% in size
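Probe: 1-aminoanthracene (50% saturated, PBS). Protein: horse-spleen apoferritin, 10 uM. Incubation: 10 min, room temperature. Detection: 380 nm excitation, 535 nm emission. Analysis: normalized response, four-parameter Hill.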
TrxR1 inh – blocks rat thioredoxin reductase 1. O89049. recombinant rTrxR1, NADPH fluorescence consumption, selenite substrate. Potency, µM (series often up to 114 µM), for inactives: top-dose activity change, negative = inhibition, actives largely listed as inhibitors. 390,000 compounds, 1% hits. AID 588453; further: potency means the concentration at half of the fitted maximal effect; on the % scale 0 is the no-effect control and ±100 the full control effect; nearly all actives have a fitted effect of over 65% in size
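Rat TrxR1 (90 nM in the dispensed reagent) was pre-reduced with 400 uM NADPH for 5 min at room temperature, then incubated with compound for 15 min. After 400 uM selenite was added, NADPH fluorescence (Ex 340/Em 450 nm) was followed for 8 min.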
miR-21 reporter – miR-21 reporter, rising signal | Potency, µM (highest dose often 38.3 µM), for inactives: at the highest dose reporter change, positive = more light | 340,000 tested, under 10 active | HeLa miR-21 FLuc reporter, luciferase, 48 h; active = well fitted rising curve with a large enough effect; inconclusive = small, poorly fitted or top-dose-only effect; inactive = no such curve, though single readings can be large or run the other way;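 note: % of control where 0% means no effect; miR-21 action dims this reporter so a rising signal means less miR-21 action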
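HeLa cells endogenously expressing miR-21, stably carrying CMV-driven firefly luciferase with a downstream miR-21 binding site, 2000 cells/well. Titrations up to approximately 40 uM, 48 hours; luciferase luminescence read.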
TrxR1 substrate – substrates of rat thioredoxin reductase 1. purified TrxR1 substrate turnover, NADPH consumption readout. Potency, µM (top dose mostly 114 µM), without a hit: top-dose activity change, negative = substrate turnover. 390,000 compounds, 0.01% hits. AID 588456; further: potency means the concentration at half of the fitted maximal effect; on the % scale 0 is the no-effect control and ±100 the full control effect; nearly all actives have a fitted effect of over 50% in size
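Rat TrxR1, dispensed at 90 nM, was prereduced with 400 uM NADPH (final) for 5 min at ~22 deg C, then incubated with compound 15 min before 400 uM selenite. A first-read NADPH fluorescence drop versus no-compound background flagged substrates.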
The depositor's hits bear a star; ? = inconclusive; nt = not tested or not shown; [ ] = remark or other dose. Unless noted, the call rests on the fitted dose curve; in most records, active means well fitted curve in the direction sought with a large enough effect; inconclusive means small, poorly fitted or top-dose-only effect, or another doubt; inactive means no such curve, though single readings can be large; an effect the other way counts as inactive or inconclusive.

| # | molecule | Apoferritin bind | miR-21 reporter | ClpP mod | TrxR1 substrate | TrxR1 inh |
| --- | --- | --- | --- | --- | --- | --- |
| 1 | CC(C)CC(=O)/C(=C/c1ccc(N(C)C)cc1)n1cncn1 | 3% | -9% | 0% | -19% | -11% |
| 2 | CC(C)CC(=O)/C(=C\c1ccc(Cl)cc1Cl)n1cncn1 | -16% | ? | 0% | 3% | 8.9µM* |
| 3 | O=C(NCCN1CCN(S(=O)(=O)c2ccc([N+](=O)[O-])cc2)CC1)C(=O)Nc1ccccc1 | -6% | -3% | 28µM* | 12% | 13% |
| 4 | O=C(NCCN1CCN(Cc2ccc([N+](=O)[O-])cc2)CC1)C(=O)Nc1ccccc1 | 6% | -3% | 0% | -6% | 12% |
| 5 | CCC(C)NC(=O)CCc1c(C)nc2cc(-c3ccc(OC)cc3OC)nn2c1C (configuration not stated) | -12% | -10% | 4% | 32% | 27% |
| 6 | Cc1csc(NC(=O)/C=C/c2ccco2)n1 | -7% | -9% | 1% | -13% | ? |
| 7 | O=C(/C=C/c1ccco1)Nc1nc(-c2ccccc2)cs1 | -6% | -13% | -3% | -9% | -11% |
| 8 | CCOC(=O)Cc1csc(NC(=O)/C=C/c2ccco2)n1 | 0% | -6% | -2% | -3% | 79µM* |
| 9 | O=C(/C=C/c1ccco1)Nc1nc(-c2ccccn2)cs1 | -13% | -18% | -7% | 9%[0.0914 µM] | 14µM* |
| 10 | CCOC(=O)c1[nH]c2ccc(OC)cc2c1NC(=O)NC(C)C | 0% | -3% | 18µM* | 18%[57.1 µM] | 7%[57.1 µM] |
| 11 | COC(=O)c1[nH]c2ccc(C)cc2c1NC(=O)CCN1CCN(Cc2ccc3c(c2)OCO3)CC1 | -13% | 7% | 20µM* | 32% | 30% |
| 12 | CCOC(=O)c1[nH]c2ccccc2c1NC(=O)NC(C)C | 11% | 1% | nt | 12% | 12% |
| 13 | CCOC(=O)c1[nH]c2ccc(OC)cc2c1NC(=O)OC | -1% | -1% | 28µM* | 56% | -2% |
| 14 | CCOC(=O)C1CCCN(CC(=O)Nc2c(C(=O)OC)[nH]c3ccc(C)cc23)C1 (configuration not stated) | ? | 2% | 32µM* | 28% | -2% |
| 15 | CCCCNC(=O)C1CCC(Cn2c(=O)c3sccc3n(CC(=O)Nc3ccccc3)c2=O)CC1 (configuration not stated) | 7% | -6% | -1% | 1%[57.1 µM] | 14%[57.1 µM] |
| 16 | CCOc1ccc(Sc2cc(C(=O)NCCCOC)c3ccccc3n2)cc1 | -13% | 16% | 17% | -1%[57.1 µM] | 17%[57.1 µM] |
| 17 | CCOC(=O)c1[nH]c2ccc(Br)cc2c1NC(=O)CCN1CCCCC1 | -14% | -13% | nt | nt | nt |
| 18 | CCOC(=O)c1[nH]c2ccc(OC)cc2c1NC(=O)CCN1CCCC(C)C1 (configuration not stated) | 4% | -5% | 32µM* | 25%[57.1 µM] | -4%[57.1 µM] |
| 19 | O=C(NCc1ccc(Cl)cc1)c1ccc(OCC2CCCO2)cc1 (configuration not stated) | 2% | -20% | -1% | -3% | 5% |
| 20 | O=C(Nc1ccc(Cl)cc1)c1ccc(OCC2CCCO2)cc1 (configuration not stated) | 2% | -24% | 14µM* | 8%[57.1 µM] | 6%[57.1 µM] |

(listing goes on)
| # | molecule | Apoferritin bind | miR-21 reporter | ClpP mod | TrxR1 substrate | TrxR1 inh |
| --- | --- | --- | --- | --- | --- | --- |
| 21 | CCn1c2c(c3cc(OCC(C)C)ccc31)CCCC2=O | -11% | -11% | 28µM* | 17% | -6% |
| 22 | CC1(C)CC(=O)C2=C(C1)OC(N)=C(C#N)C2C#Cc1ccccc1 (configuration not stated) | -14% | -3% | 4% | -3% | 2.5µM* |
| 23 | CC(c1ccccc1)C1C(C#N)=C(N)OC2=C1C(=O)CC(C)(C)C2 (configuration not stated) | ? | 9% | 1% | 4% | 3% |
| 24 | CCCC(=O)N1N=C(c2ccccc2)CC1c1cn(C)c2ccccc12 (configuration not stated) | -16% | -15% | ? | -1% | 9% |
| 25 | CC(=O)N1N=C(c2ccc(Br)cc2)CC1c1cn(C)c2ccccc12 (configuration not stated) | -17% | -10% | 28µM* | -4% | ? |
| 26 | Cc1ccc(S(=O)(=O)c2nc(-c3ccccc3Br)oc2N(C)C)cc1 | nt | nt | 2% | 14% | 6.3µM* |
| 27 | Cc1ccc(-c2nc(S(=O)(=O)c3ccc(C)cc3)c(N(C)C)o2)cc1 | -4% | -2% | -2% | 7% | 25µM* |
| 28 | Cc1nc(S(=O)(=O)c2ccc(Cl)cc2)c(N(C)C)o1 | 118% | -2% | 3% | 6% | 4µM* |
| 29 | Cc1nc(S(=O)(=O)c2ccc(Cl)cc2)c(NCc2ccccc2)o1 | 48% | -1% | 1% | -1% | 45µM* |
| 30 | COc1cc(-c2nc(S(=O)(=O)c3ccc(C)cc3)c(N(C)C)o2)cc(OC)c1OC | -5% | 1% | -3% | -5%[57.1 µM] | -23%[57.1 µM] |
| 31 | CN(C)c1ccc(C(CNC(=O)c2ccccc2F)N2CCc3ccccc32)cc1 (configuration not stated) | 66% | -40% | 0% | 1%[57.1 µM] | ? |
| 32 | COc1cc(-c2noc(-c3ccc(NCC4CCCO4)c([N+](=O)[O-])c3)n2)cc(OC)c1OC (configuration not stated) | -8% | -15% | -1% | -8% | -1% |
| 33 | O=C(Nc1ccc(Cl)cc1Cl)[C@@H]1CC=C[C@@H]2CCN(Cc3ccccc3)C(=O)[C@@H]21 | nt | nt | 1% | 4% | 15% |
| 34 | CCN(CC(=O)NC(C)C)Cc1nc2sc3c(c2c(=O)[nH]1)CCC3 | -13% | -2% | 13µM* | -1% | 3% |
| 35 | CN(CC(=O)Nc1ccc(Cl)cc1)C(=O)CCc1nc2sc3c(c2c(=O)[nH]1)CCCC3 | nt | nt | 32µM* | -4% | -3% |
| 36 | CN(CC(=O)Nc1ccccc1C(F)(F)F)C(=O)CCc1nc2sc3c(c2c(=O)[nH]1)CCCC3 | -5% | -3% | -10% | 3% | 10% |
| 37 | CCN(CC(=O)Nc1ccccc1C(F)(F)F)C(=O)CCc1nc2sc3c(c2c(=O)[nH]1)CCCC3 | nt | nt | 16µM* | 4% | 6% |
| 38 | CCCc1nc2sc3c(c2c(=O)[nH]1)CCCC3 | -5% | -6% | 0% | -6%[57.1 µM] | 5%[57.1 µM] |
| 39 | CN(CC(=O)Nc1ccc(F)cc1)C(=O)CCc1nc2sc3c(c2c(=O)[nH]1)CCCC3 | nt | nt | -1% | -2% | -8% |
| 40 | CN(Cc1ccco1)C(=O)CCc1nc2sc3c(c2c(=O)[nH]1)CCCC3 | -17% | -4% | -14% | -3% | 18µM* |

In another format: entries from further up
[22] CC1(C)CC(=O)C2=C(C1)OC(N)=C(C#N)C2C#Cc1ccccc1 (configuration not stated)
[31] CN(C)c1ccc(C(CNC(=O)c2ccccc2F)N2CCc3ccccc32)cc1 (configuration not stated)
[35] CN(CC(=O)Nc1ccc(Cl)cc1)C(=O)CCc1nc2sc3c(c2c(=O)[nH]1)CCCC3
[30] COc1cc(-c2nc(S(=O)(=O)c3ccc(C)cc3)c(N(C)C)o2)cc(OC)c1OC
[40] CN(Cc1ccco1)C(=O)CCc1nc2sc3c(c2c(=O)[nH]1)CCCC3
[26] Cc1ccc(S(=O)(=O)c2nc(-c3ccccc3Br)oc2N(C)C)cc1

screen / no. | 22 | 31 | 35 | 30 | 40 | 26
Apoferritin bind | -14% | 66% | nt | -5% | -17% | nt
miR-21 reporter | -3% | -40% | nt | 1% | -4% | nt
ClpP mod | 4% | 0% | 32µM* | -3% | -14% | 2%
TrxR1 substrate | -3% | 1%[57.1 µM] | -4% | -5%[57.1 µM] | -3% | 14%
TrxR1 inh | 2.5µM* | ? | -3% | -23%[57.1 µM] | 18µM* | 6.3µM*

(cont.)
| # | molecule | Apoferritin bind | miR-21 reporter | ClpP mod | TrxR1 substrate | TrxR1 inh |
| --- | --- | --- | --- | --- | --- | --- |
| 41 | CN(C)C(=O)CCc1nc2sc3c(c2c(=O)[nH]1)CCCC3 | -8% | -1% | -3% | -1% | -3% |
| 42 | Nc1cc(=O)[nH]c2c1CCC2 | nt | nt | -20% | 9%[0.0914 µM] | 14% |
| 43 | Cc1ccc(CN(C)C(=O)CCc2nc3sc4c(c3c(=O)[nH]2)CCCC4)o1 | -5% | 0% | -11% | -3% | 50µM* |
| 44 | COc1ccc(-c2cc(C(=O)OCC(=O)N(C)C)c3ccccc3n2)cc1 | -10% | -8% | ? | 26%[57.1 µM] | 19%[57.1 µM] |
| 45 | CCOC(=O)c1cc(Cl)c2c(ccc3ccccc32)n1 | nt | nt | -12% | nt | nt |
| 46 | CCOC(=O)Cc1cc(-c2ccc(OC)cc2)nc2ccc3ccccc3c12 | -3% | -10% | 8.9µM* | 53% | 26% |
| 47 | CCOC(=O)Cn1nc(-c2ccc(F)cc2)cc(Cc2ccccc2)c1=O | -17% | -8% | -4% | 3% | 25% |
| 48 | CCOC(=O)Cc1cc(-c2ccc(O)cc2)nc2ccc3ccccc3c12 | -11% | -1% | 32µM* | 8% | 10% |
| 49 | CCOC(=O)Cc1cc(-c2ccc(F)cc2)nc2ccc3ccccc3c12 | 3% | -15% | 22µM* | 1% | -4% |
| 50 | Cc1ccc(NC(=O)C(C)n2nnc3sc4c(c3c2=O)CCCC4)cc1Cl (configuration not stated) | -15% | 2% | 1% | -4% | 8% |
